Drawing on patent publication US20110034670A1 (BOARD OF GOVERNORS FOR HIGHER EDUCATION STATE OF RHODE …, published 2011), this text covers IC50 for one molecule.

A word on the IC50: it is the midpoint of a concentration-inhibition curve. A lower IC50 goes with higher potency.

For the assay, the target named is Src SH2 domain. Briefly: fluorescence polarization, competition with fluorescein-Gly-pTyr-Glu-Glu-Ile-NH2. (In general: In fluorescence polarisation assays a small probe gives low polarisation when free and higher when bound to something large.)

B1: ATP-1,13-Trioxa-SA-pTyr-γ-p-azidoGlu-Glu-Ile-OH (7) (peptide)
peptide: YEEI
modifications: 8-azido-ATP linked through 4,7,10-trioxa-1,13-tridecanediamine and succinoyl to the N-terminus; phosphotyrosine at 1; p-azidophenylamino group on the γ-carboxyl of Glu 2 (P+1)
notes: also called compound 7; diazido ATP-phosphopeptide conjugate 7
The molecule B1 displayed an IC50 of 35.6 µM.
